Substitutions are numbered along the chain they refer to.

For test [1], the target named is T1, human LRRC15 extracellular domain with C-terminal His tag (human, UniProt Q8TF66 22-538).
T1 construct: Recombinant, made in HEK293; the entry holds the extracellular domain and the His tag; SPR analyte; also called TPP-1545; hLRRC15 CT-His
T1 sequence: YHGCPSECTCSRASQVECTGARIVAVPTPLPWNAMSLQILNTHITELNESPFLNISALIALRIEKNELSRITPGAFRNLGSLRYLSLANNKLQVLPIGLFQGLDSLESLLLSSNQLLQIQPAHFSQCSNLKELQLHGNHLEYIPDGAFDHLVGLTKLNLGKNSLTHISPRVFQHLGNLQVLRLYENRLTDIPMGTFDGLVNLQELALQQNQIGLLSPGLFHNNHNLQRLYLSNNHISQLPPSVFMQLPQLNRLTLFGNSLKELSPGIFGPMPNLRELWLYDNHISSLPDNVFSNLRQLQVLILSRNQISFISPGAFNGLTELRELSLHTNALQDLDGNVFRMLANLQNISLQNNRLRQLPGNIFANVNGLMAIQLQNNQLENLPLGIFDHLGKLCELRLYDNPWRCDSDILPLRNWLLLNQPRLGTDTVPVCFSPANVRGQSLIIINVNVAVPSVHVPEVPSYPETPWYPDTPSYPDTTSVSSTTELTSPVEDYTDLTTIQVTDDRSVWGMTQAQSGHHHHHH
As to the kind of experiment: SPR (Example 3), 10°C; kd as listed in Table 6. On the procedure:
(§1) To assess if anti-LRRC-15 antibodies show a difference in binding at different temperatures, binding assays were conducted using surface plasmon resonance (SPR). Binding assays were performed on a Biacore T200 instrument at temperatures of 10° C., 20° C., 25° C. and 37° C. with assay buffer HBS EP+, 1 mg/ml BSA (bovine serum albumine), 300 mM NaCl, 0.05% NaN₃. Antibodies were captured via anti-human Fc IgGs covalently amine coupled to a CM5 sensor chip and human LRRC15 was used as an analyte in a concentration series from 1.56-200 nM in multi cycle kinetics mode. Pre-experiments were conducted to have an equal capture level at each temperature. Obtained sensorgrams were fitted to a 1:1 Langmuir binding model to derive kinetic data.

Test [2] has as its target T1, human LRRC15 extracellular domain with …. As to the kind of experiment: SPR (Example 3), 20°C; kd as listed in Table 6. As for the experimental part: as §1
The target is the same in test [3]. As to the kind of experiment: SPR (Example 3), 25°C; kd as listed in Table 6. As for the experimental part:
as §1

Test [4] has the same target. As to the kind of experiment: SPR (Example 3), 37°C; kd as listed in Table 6. As for the experimental part:
as §1

Test [5] has the same target. As to the kind of experiment: SPR Biacore T200, antibody captured, LRRC15 analyte, 10°C. On the procedure:
as §1
(In general: SPR reads the build-up and loss of mass on a sensor chip optically.)

The target is the same in test [6]. In words: SPR Biacore T200, antibody captured, LRRC15 analyte, 20°C. On the procedure: as §1
The target is the same in test [7]. As to the kind of experiment: SPR Biacore T200, antibody captured, LRRC15 analyte, 25°C. On the procedure:
as §1

For test [8] the target is unchanged. As to the kind of experiment: SPR Biacore T200, antibody captured, LRRC15 analyte, 37°C. As for the experimental part:
as §1

For test [9] the target is unchanged. As to the kind of experiment: SPR Biacore T200, 25°C, antibody captured, LRRC15 analyte. On the procedure: (§2) To assess the binding kinetics and affinity of anti-LRRC15 antibodies as well as their species cross-reactivity profile, binding assays were conducted using surface plasmon resonance (SPR). Binding assays were performed on a Biacore T200 instrument at 25° C. using assay buffer HBS EP+, 1 mg/ml BSA, 300 mM NaCl, 0.05% NaN3. Antibodies were captured via anti-human Fc IgGs covalently amine coupled to a CM5 sensor chip and human, mouse and cynomolgus LRRC15 were used as analytes in a concentration series from 1.56-200 nM in multi cycle kinetics mode. To obtain reliable dissociation rate constants (kd) the dissociation rate was prolonged from 2.000 seconds to 12.000 seconds for two concentrations of antigen injection (25 nM and 200 nM). Obtained sensorgrams were fitted to a 1:1 Langmuir binding model to derive kinetic data.

For test [10], the target named is T2, murine LRRC15 extracellular domain with C-terminal His tag (mouse, UniProt Q80X72 22-536).
T2 construct: Recombinant, made in HEK293; the entry holds the extracellular domain and the His tag; SPR analyte; also called TPP-9045
The description is as above. On the procedure:
as §2

For test [11], the target named is T3, cynomolgus (Macaca fascicularis) LRRC15 extracellular domain with C-terminal His tag (cynomolgus monkey (Macaca fascicularis), UniProt Q8TF66 22-538 (human entry)).
T3 construct: Recombinant, made in HEK293; the entry holds the extracellular domain and the His tag; SPR analyte; also called TPP-9046
T3 chain: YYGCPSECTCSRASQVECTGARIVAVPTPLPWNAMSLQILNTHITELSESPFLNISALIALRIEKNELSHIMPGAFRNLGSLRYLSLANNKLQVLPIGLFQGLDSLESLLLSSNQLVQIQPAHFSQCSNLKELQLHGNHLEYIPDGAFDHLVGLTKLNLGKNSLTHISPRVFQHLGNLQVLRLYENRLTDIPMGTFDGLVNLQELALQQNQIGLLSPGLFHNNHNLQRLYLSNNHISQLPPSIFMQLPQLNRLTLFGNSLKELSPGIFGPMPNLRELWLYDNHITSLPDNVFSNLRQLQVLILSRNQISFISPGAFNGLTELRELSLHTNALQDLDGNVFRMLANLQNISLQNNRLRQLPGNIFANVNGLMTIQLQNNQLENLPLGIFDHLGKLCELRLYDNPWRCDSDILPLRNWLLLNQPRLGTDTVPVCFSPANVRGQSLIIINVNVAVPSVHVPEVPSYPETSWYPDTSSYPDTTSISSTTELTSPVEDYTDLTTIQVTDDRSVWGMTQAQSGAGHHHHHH
Described as above. As for the experimental part:
as §2

In test [12] the target is T2, murine LRRC15 extracellular domain with …. As to the kind of experiment: SPR (Example 6), overview table, repeats Table 9; head prints [M^-1]. As for the experimental part: as §2

B1: TPP-17078 (antibody, human IgG1, kappa, V domains shown)
VH: EVQLVQSGAEVKKPGASVKVSCKASGYKFSSYWIEWVKQAPGQGLEWIGEILPGSDTTNYNEKFKDRATFTSDTSINTAYMELSRLRSDDTAVYYCARDRGNYRAWFGYWGQGTLVTVSS
VL: DIQMTQSPSSLSASVGDRVTITCRASQSISSYLNWYQQKPGGAPKFLIYYASSLQSGVPSRFSGSGSGTDYTLTISSLQPEDFATYYCQQGFSLPWTFGGGTKVEIKR
notes: also called 438H-M308-H05-hIgGkappa
A word on the koff: it is the first-order rate constant of dissociation. The kon is a measure of how fast the partners come together. As a reminder, the Kd is the equilibrium constant for the complex coming apart. For B1, the koff in [1] was found to be 1.3e-05 s⁻¹; in [2] it was 4.6e-05 s⁻¹; in test [3], 9.1e-05 s⁻¹; in test [4], 0.00066 s⁻¹; in test [5], 1.3e-05 s⁻¹; in [6] it was 4.6e-05 s⁻¹. Further, the koff in test [7] turned out to be 9.1e-05 s⁻¹; in [8] it was 0.00066 s⁻¹; in [9], 8.1e-05 s⁻¹; in [10] it was 0.00012 s⁻¹; in [11] it was 0.00011 s⁻¹. Further, the kon was found to be 40000 M⁻¹ s⁻¹ in test [5]; 52000 M⁻¹ s⁻¹ in test [6]; 58000 M⁻¹ s⁻¹ in test [7]; 67000 M⁻¹ s⁻¹ in [8]; 47000 M⁻¹ s⁻¹ in test [9]; 42000 M⁻¹ s⁻¹ in test [10]. Moreover, the kon in [11] was 59000 M⁻¹ s⁻¹. In addition, the Kd in test [10] and in test [12] was 2.9 nM each time.

B2: TPP-17421 (antibody, human IgG1, kappa, V domains shown)
VH: B1 VH with T57W, G108Q
VL: B1 VL with F92L, S93E
notes: also called 438H-M306-C11-hIgG1Kappa
Take B2: the koff in test [1] came to 2e-05 s⁻¹; in [2] it was 4.3e-05 s⁻¹; in [3] it was 5.3e-05 s⁻¹; in test [4], 0.00018 s⁻¹; in test [5] it was 2e-05 s⁻¹; in [6] it was 4.3e-05 s⁻¹. Further, the koff in [7] came out at 5.3e-05 s⁻¹; in test [8], 0.00018 s⁻¹; in test [9] it was 3.7e-05 s⁻¹; in test [10] it was 4.5e-05 s⁻¹; in test [11] it was 4.2e-05 s⁻¹. Moreover, the kon is 42000 M⁻¹ s⁻¹ in test [5]; 52000 M⁻¹ s⁻¹ in [6]; 60000 M⁻¹ s⁻¹ in test [7]; 76000 M⁻¹ s⁻¹ in test [8]; 39000 M⁻¹ s⁻¹ in [9]; 29000 M⁻¹ s⁻¹ in test [10]. The molecule also returned a kon in [11] of 46000 M⁻¹ s⁻¹. Also, the Kd in test [10] and in [12] was 1.6 nM each time.

B3: TPP-14389 (antibody, human IgG1, kappa, V domains shown)
VH: EVQLLESGGGLVQPGGSLRLSCAASGFTFSGYMMSWVRQAPGKGLEWVSGIYPSPGYTYYADSVKGRFTISRDNSKNTLYLQMNSLRAEDTAVYYCAREKASDLFGSYSEALDYWGQGTLVTVSS
VL: DIQMTQSPDSLSASVGDRVTITCRASQDVGSWLAWYQQKPGKAPKLLIFAASSLESGIPSRFSGSGSGTDFTLTISSLQPEDFATYYCQQANGFPLTFGGGTKVEIKR
notes: Variant of TPP-1633, human IgG1 kappa; also called 13612-rec02-hIgG1Kappa
For B3, the koff was 0.00012 s⁻¹ in test [1]; 0.00047 s⁻¹ in [2]; 0.0013 s⁻¹ in [3]; 0.019 s⁻¹ in [4]; 0.00012 s⁻¹ in test [5]; 0.00047 s⁻¹ in [6]. Further, the koff was 0.0013 s⁻¹ in [7]; 0.019 s⁻¹ in test [8]; 0.0019 s⁻¹ in [9]; 0.0019 s⁻¹ in test [10]; 0.0016 s⁻¹ in test [11]. For the same molecule, the kon in test [5] was 190000 M⁻¹ s⁻¹; in test [6], 230000 M⁻¹ s⁻¹; in test [7] it was 240000 M⁻¹ s⁻¹; in test [8], 300000 M⁻¹ s⁻¹; in [9], 320000 M⁻¹ s⁻¹; in test [10], 37000 M⁻¹ s⁻¹. The same molecule came in with a kon in test [11] of 180000 M⁻¹ s⁻¹. Also, the Kd in test [10] and in [12] was 52 nM throughout.

The record behind these values is patent US20240108766A1 (Bayer, published 2024).
